Measurements from patent US10882867B2, “Forms and compositions of a MK2 inhibitor” (Celgene CAR LLC, priority 2017, dated 2021).

The chains behind the UniProt entries cited, without tags or fusion partners.
UniProt P49137, whole entry: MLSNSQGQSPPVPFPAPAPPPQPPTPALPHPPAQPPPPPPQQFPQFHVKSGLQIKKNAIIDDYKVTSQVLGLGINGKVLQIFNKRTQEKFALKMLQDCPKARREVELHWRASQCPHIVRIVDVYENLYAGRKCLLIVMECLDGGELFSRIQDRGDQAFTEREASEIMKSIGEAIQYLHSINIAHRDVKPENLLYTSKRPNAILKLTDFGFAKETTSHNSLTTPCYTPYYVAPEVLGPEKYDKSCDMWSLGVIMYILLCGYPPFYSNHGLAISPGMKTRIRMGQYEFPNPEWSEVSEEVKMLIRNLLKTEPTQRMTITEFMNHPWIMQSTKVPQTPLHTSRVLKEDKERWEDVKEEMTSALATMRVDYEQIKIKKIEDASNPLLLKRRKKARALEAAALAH

What was measured:
MK2 [1] = biological target: T1, MK2 (Homo sapiens, UniProt P49137); details: enzymatic and cellular assays
MK2 [2] = biological target: T1, MK2; details: Thp-1 human acute monocytic leukemia cells
[3] = Form conversion (form transfer) experiments: slurry, compression, heating, humidity cycle; type: physicochemical; details: conclusion from form transfer, heat and humidity stress experiments
Protocol: Form conversion experiments were performed to determine interconversion among solid forms.
The schematic inter-conversion among crystalline forms of Compound 1 is depicted in FIG. 48.
The stability of Form A was further characterized by compression test and form transfer experiments (Table 6). Upon application of 2000-psi pressure for about 1 minute, the material was still Form A, with broader diffraction peaks (FIG. 42(c)).

Inhibition of MK2 kinase (MK2 [1]) | Inhibition of MK2 (MK2 [2]) | Relative stability of the crystalline form [3] | SMILES
 |  | metastable hydrate | CCOCc1cnc(Cl)nc1Oc1ccc2c(ccc3sc4c(c32)NC[C@@H](C)NC4=O)n1 [Form C, (R)-3-((2-chloro-5-(ethoxymethyl)pyrimidin-4-yl)oxy)-10-methyl-9,10,11,12-tetrahydro-8H-[1,4]diazepino[5′,6′:4,5]thieno[3,2-f]quinolin-8-one]
 |  | metastable anhydrate | CCOCc1cnc(Cl)nc1Oc1ccc2c(ccc3sc4c(c32)NC[C@@H](C)NC4=O)n1 [Form D, (R)-3-((2-chloro-5-(ethoxymethyl)pyrimidin-4-yl)oxy)-10-methyl-9,10,11,12-tetrahydro-8H-[1,4]diazepino[5′,6′:4,5]thieno[3,2-f]quinolin-8-one]

The remaining lines, values behind:

SMILES | Inhibition of MK2 kinase (MK2 [1]) | Inhibition of MK2 (MK2 [2]) | Relative stability of the crystalline form [3]
CCOCc1cnc(Cl)nc1Oc1ccc2c(ccc3sc4c(c32)NC[C@@H](C)NC4=O)n1 [Compound 1, (R)-3-((2-chloro-5-(ethoxymethyl)pyrimidin-4-yl)oxy)-10-methyl-9,10,11,12-tetrahydro-8H-[1,4]diazepino[5′,6′:4,5]thieno[3,2-f]quinolin-8-one] | covalent, irreversible inhibition | inhibit | 
CCOCc1cnc(Cl)nc1Oc1ccc2c(ccc3sc4c(c32)NC[C@@H](C)NC4=O)n1 [Form A, (R)-3-((2-chloro-5-(ethoxymethyl)pyrimidin-4-yl)oxy)-10-methyl-9,10,11,12-tetrahydro-8H-[1,4]diazepino[5′,6′:4,5]thieno[3,2-f]quinolin-8-one] |  |  | most stable anhydrate form; also recorded: most stable anhydrous form
CCOCc1cnc(Cl)nc1Oc1ccc2c(ccc3sc4c(c32)NC[C@@H](C)NC4=O)n1 [Form B, (R)-3-((2-chloro-5-(ethoxymethyl)pyrimidin-4-yl)oxy)-10-methyl-9,10,11,12-tetrahydro-8H-[1,4]diazepino[5′,6′:4,5]thieno[3,2-f]quinolin-8-one] |  |  | metastable anhydrate

Entries after “also recorded” stand apart in the source; their conditions may differ.
